Measured values as given in US6451814B1, “Heterocyclic β-3 adrenergic receptor agonists” (Wyeth, priority 2000, dated 2002).

Amino acid sequences for entries named in this document (tags omitted). A change or cut given only in a name is not applied to a line headed by its entry.
UniProt P13945: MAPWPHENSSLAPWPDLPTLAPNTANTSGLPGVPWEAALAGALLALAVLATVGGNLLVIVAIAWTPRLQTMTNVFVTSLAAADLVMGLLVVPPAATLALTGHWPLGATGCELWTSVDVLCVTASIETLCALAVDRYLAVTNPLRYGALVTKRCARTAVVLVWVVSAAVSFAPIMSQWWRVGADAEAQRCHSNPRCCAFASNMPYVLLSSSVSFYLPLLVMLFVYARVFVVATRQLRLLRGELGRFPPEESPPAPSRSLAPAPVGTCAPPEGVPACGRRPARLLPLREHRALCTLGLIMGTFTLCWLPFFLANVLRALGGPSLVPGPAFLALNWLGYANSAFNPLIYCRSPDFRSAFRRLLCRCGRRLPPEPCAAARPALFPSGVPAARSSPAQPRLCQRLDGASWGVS

Biological target: T1, human β3-adrenergic receptor (Homo sapiens, UniProt P13945)
T1 construct: Full length β3 AR clones (402 amino acids) containing the last 6 amino acids of hβ3—AR are prepared; expressed in transfected cells; host or cells: CHO cells
Test: cAMP response (SPA kit) in CHO cells transfected with human β3 adrenergic receptor
Format: cell-based
Settings: CHO cells expressing human β3-AR; 10^-9 M to 10^-5 M; 30 min at 37° C.; cAMP by SPA

SMILES | EC50 [nM]
O=C(NCc1c(F)cccc1F)N1CCC(Nc2ccc(CCNC[C@H](O)COc3ccc(O)cc3)cc2)CC1 [Example 32, 4-(4-{2-[(2S)-2-Hydroxy-3-(4-hydroxy-phenoxy)-propylamino]-ethyl}-phenylamino)-piperidine-1-carboxylic Acid 2,6-difluoro-benzylamide] | 32
CCCCCCCCNC(=O)N1CCC(Nc2ccc(CCNC[C@H](O)c3cccc(Cl)c3)cc2)CC1 [Example 36, 4-(4-{2-[(2R)-2-(3-Chloro-phenyl)-2-hydroxy-ethylamino]-ethyl}-phenylamino)-piperidine-1-carboxylic Acid Octylamide] | 1020
O=C(NCc1ccccc1F)N1CCC(Nc2ccc(CCNC[C@H](O)COc3ccc(O)cc3)cc2)CC1 [Example 26, 4-(4-{2-[(2S)-2-Hydroxy-3-(4-hydroxy-phenoxy)-propylamino]-ethyl}-phenylamino)-piperidine-1-carboxylic Acid 2-fluoro-benzylamide] | 37
CCCCCCCCNC(=O)N1CCC(Nc2ccc(CCNC[C@H](O)COc3ccc(N)nc3)cc2)CC1 [Example 5, 4-(4-{2-[(2S)-3-(6-Amino-pyridin-3-yloxy)-2-hydroxy-propylamino]-ethyl}-phenylamino)-piperidine-1-carboxylic Acid Octylamide] | 290
O=C(NCc1ccc(F)cc1F)N1CCC(Nc2ccc(CCNC[C@H](O)COc3ccc(O)cc3)cc2)CC1 [Example 80, 4-(4-{2-[(2S)-2-Hydroxy-3-(4-hydroxy-phenoxy)-propylamino]-ethyl}-phenylamino)-piperidine-1-carboxylic acid 2,4-difluoro-benzylamide] | 30

Further molecules by falling EC50, results first:

EC50 [nM] | SMILES
250 | O=C(NCc1ccc(Cl)cc1Cl)N1CCC(Nc2ccc(CCNC[C@H](O)COc3ccc(O)cc3)cc2)CC1 [Example 20, 4-(4-{2-[(2S)-2-Hydroxy-3-(4-hydroxy-phenoxy)-propylamino]-ethyl}-phenylamino)-piperidine-1-carboxylic Acid 2,4-dichloro-benzylamide]
66 | CCCCCCCCNC(=O)N1CCC(Nc2ccc(CCNC[C@H](O)COc3ccc(O)c4c3CCC(=O)N4)cc2)CC1 [Example 69, 4-(4-{2-[(2S)-2-Hydroxy-3-(8-hydroxy-2-oxo-1,2,3,4-tetrahydro-quinolin-5-yloxy)-propylamino]-ethyl}-phenylamino)-piperidine-1-carboxylicacid Octylamide]
47 | CNC(=O)N1CCC(Nc2ccc(CCNC[C@H](O)COc3ccc(O)cc3)cc2)CC1 [Example 9, 4-(4-{2-[(2S)-2-Hydroxy-3-(4-hydroxy-phenoxy)-propylamino]-ethyl}-phenylamino)-piperidine-1-carboxylic Acid Methylamide]
30 | NC(=O)N1CCC(Nc2ccc(CCNC[C@H](O)COc3ccc(O)cc3)cc2)CC1 [Example 18, 4-(4-{2-[(2S)-2-Hydroxy-3-(4-hydroxy-phenoxy)-propylamino]-ethyl}-phenylamino)-piperidine-1-carboxylic Acid Amide]
23 | O=C(NCc1cc(F)ccc1F)N1CCC(Nc2ccc(CCNC[C@H](O)COc3ccc(O)cc3)cc2)CC1 [Example 37, 4-(4-{2-[(2S)-2-Hydroxy-3-(4-hydroxy-phenoxy)-propylamino]-ethyl}-phenylamino)-piperidine-1-carboxylic Acid 2,5-difluoro-benzylamide]
5 | CS(=O)(=O)Nc1cc([C@@H](O)CNCCc2ccc(NC3CCN(C(=O)NCc4cc(F)ccc4F)CC3)cc2)ccc1O [Example 76, 4-(4-{2-[(2R)-2-Hydroxy-2-(4-hydroxY-3-methanesulfonylamino-phenyl)-ethylamino]-ethyl}-phenylamino)-piperidine-1-carboxylic Acid 2,5-difluoro-benzylamide]
1 | CS(=O)(=O)Nc1cc(OC[C@@H](O)CNCCc2ccc(NC3CCN(C(=O)NCc4cc(F)ccc4F)CC3)cc2)ccc1O [Example 50, 4-(4-{2-[(2S)-2-Hydroxy-3-(4-hydroxy-3-methanesulfonylamino-phenoxy)-propylamino]-ethyl}-phenylamino)-piperidine-1-carboxylic Acid 2,5-difluoro-benzylamide]
